# Legend:
# [1] = tested on: hiPSC-derived vascularized cardiac organoids; assay: Beating of vascularized cardiac organoids under pharmaceutical stimulation; type: cell-based, human
# Protocol: hiPS-derived cardiomyocytes and microvascular cardiac endothelial cells (VEC Technologies, USA) were counted and mixed in a 2:1 ratio in growth factor reduced Matrigel (BD Biosciences, San Jose, CA) at a cell density of 6.8×10^4 cells per μl. A volume of 1.1 μl of the gel-imbedded mixture (7.48×10^4 cells) was injected into each microwell and left to form spontaneously in RPMI-1640 supplemented with B27 minus insulin and 5 ng/ml vascular endothelial growth factor (VEGF-A, Peprotech) until their spontaneous beating was regained after 6-10 days.
# Fast phase-contrast imaging (17 frames per second) was performed at suitable magnification using an LSM-700 Zeiss microscope. The time-lapse micrograph was analyzed using a custom MATLAB® code. Briefly, multiple regions of interest (ROIs) were selected on the cardiac tissue borders, producing a distinct area with changes representative of the cardiac contraction. Dynamic changes in the ROI intensity were measured over time and converted into beating rates using Fast Fourier Transformation (FFT). Contractility was calculated based on the frequency amplitude magnitude.
# [2] = tested on: vascularized cardiac organoids; assay: Integrated metabolic-electro-mechanical sensor chip: simultaneous contraction, field potential and interstitial oxygen; type: cell-based, human
# Protocol: The MEA design and printed connections enabled access to 45 different electrodes inside the platform intermittently via a compatible sensor circuit (FIGS. 9A-9B). Spontaneous cardiac field potentials (FPs) were recorded from cardiac organoids using an integrated signal conditioning circuit (AD8232®), with a 2-pole adjustable high-pass filter, 3-pole adjustable low-pass filter, adjustable gain, and medical instrumentation amplifiers to extract, amplify, and filter the extracellular field potential of the organoids remotely within the confined well. […] Spontaneous cardiac field potentials were measured at 100 Hz sampling rate in each microwell. Field potential rhythm frequency was calculated in real-time using a custom-made MATLAB® software imposing Fourier Transformation (FFT) on the evolving kinetic data (FIGS. 9C-9D).
# Real-time oxygen measurement was performed based on previously described elements. […] A phase shift is measured between the emission hardware-filtered first detector (PMT), and a second excitation detector (cPMT). […] Contraction rate and oxygen rhythm frequency were calculated in real-time using a custom-made MATLAB® software imposing Fourier Transformation (FFT) on the evolving kinetic data. […] Cardiac displacement was measured by the embedded oxygen beads inside the cardiac organoids during a contraction. […]
structure (smiles),measurement,setting,value
CNC[C@H](O)c1ccc(O)c(O)c1 [epinephrine],increase of relative contraction / contraction amplitude,[1],18%
same,interstitial oxygen oscillation frequency,[2],1.83 Hz
